Measurements from ChEMBL document CHEMBL4177766, “Targeting a Subpocket in Trypanosoma brucei Phosphodiesterase B1 (TbrPDEB1) Enables the Structure-Based Discovery of Selective Inhibitors with Trypanocidal Activity” (J Med Chem, 2018).

Experiment: Selectivity ratio of Ki for full length recombinant human PDE4B1 to Ki for full length Trypanosoma brucei PDEB1

Row | Compound | Ratio Ki
1 | COc1ccc(C2=NN(C3CCCCCC3)C(=O)[C@H]3CC=CC[C@@H]23)cc1-c1ccc(C(=O)NCC(N)=O)cc1 | 13
2 | COc1ccc(C2=NN(C3CCCCCC3)C(=O)[C@@H]3CC=CC[C@H]23)cc1-c1ccc(C(=O)NCC(N)=O)cc1 | 16
3 | COc1ccc(C2=NN(C3CCCCCC3)C(=O)[C@@H]3CC=CC[C@H]23)cc1-c1ccc(C(=O)NCC(N)=O)cc1 (relative stereo) | 10
4 | COc1ccc(C2=NN(C(C)C)C(=O)[C@@H]3CC=CC[C@H]23)cc1-c1ccc(C(=O)NCC(N)=O)cc1 (relative stereo) | 19
